Reference: patent US9789072B2, “Therapeutic agents for use in the propylaxis and/or treatment of hyperkinetic movement disorders” (SOM INNOVATION BIOTECH, S.L., priority 2013, dated 2017)
Where two headings read alike, the source gives them in different places.

Protein sequences, listed by entry. Tags and fused reporters are not part of them.
UniProt Q01827, whole entry: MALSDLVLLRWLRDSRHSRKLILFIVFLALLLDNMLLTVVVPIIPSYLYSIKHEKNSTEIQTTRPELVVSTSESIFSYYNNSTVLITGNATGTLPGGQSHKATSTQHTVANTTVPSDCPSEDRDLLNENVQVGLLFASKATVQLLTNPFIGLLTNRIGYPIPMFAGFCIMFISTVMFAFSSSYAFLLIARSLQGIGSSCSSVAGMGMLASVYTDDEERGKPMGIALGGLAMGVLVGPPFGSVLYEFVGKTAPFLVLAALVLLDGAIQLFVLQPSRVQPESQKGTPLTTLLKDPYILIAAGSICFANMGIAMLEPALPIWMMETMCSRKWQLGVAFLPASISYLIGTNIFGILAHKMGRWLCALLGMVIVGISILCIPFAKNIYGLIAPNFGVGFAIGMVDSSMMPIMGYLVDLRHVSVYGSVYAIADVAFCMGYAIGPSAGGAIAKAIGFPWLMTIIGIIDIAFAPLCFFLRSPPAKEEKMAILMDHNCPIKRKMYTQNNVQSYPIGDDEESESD

Target: T1, VMAT2 (Rattus norvegicus, UniProt Q01827)
T1 construct: the VMAT2 present in isolated cerebral cortical vesicles; from tissue; host or cells: rat cerebral cortex, synaptic vesicles purified by differential centrifugation
Experiment: VMAT2 functional assay ([3H]-dopamine uptake into isolated vesicles)
Format: biochemical
Conditions: rat cortical vesicles, [3H]-dopamine 30 nM, 30 min pre-incubation, 15 min uptake, room temperature
Experimental: VMAT2 Functional Assay determines the interaction between the compounds of the present invention and the VMAT2 present in isolated cerebral cortical vesicles.
Transporter Source: Rat cortical vesicles
Buffers: 100 mM potassium tartrate, 1.7 mM ascorbic acid, 0.05 mM EGTA, 0.1 mM EDTA, 2 mM Magnesium-ATP and 25 mM HEPES.
RadioLigand: • Monoamine: [3H]-Dopamine • Final ligand concentration: 30 nM
Vmax (transport rate): 1800 fmol/mg tissue/min
Positive reference-control: • Reserpine • Concentration: 10 μM
(1) Rat cortical vesicles were purified using differential centrifugation, and the vesicles obtained were diluted in the assay buffer and pre-incubated with the positive-reference-control, the comparative sample or a compound of the invention for 30 minutes at room temperature. […]
(3) After that time, the reaction was stopped by vacuum filtration, and the amount of radioactivity of the radiolabeled [3H]-dopamine trapped onto the filters was determined.
(4) The radioactivity of the [3H]-dopamine trapped was determined using liquid scintillation spectrophotometry (Beckman and Perkin Elmer). The amount of radioactivity obtained with the comparative sample or a compound of the invention was compared with the amount of radioactivity obtained with the positive-reference control (reserpine). […]

IC50 (Experiment 1, read-out: IC50 (nM) Experiment 1): 10.5 nM | IC50 (Experiment 2, read-out: IC50 (nM) Experiment 2): 36.7 nM
SMILES: COc1cc2c(cc1OC)C1CC(=O)C(CC(C)C)CN1CC2 (stereo not drawn) [tetrabenazine, (SS,RR)-3-isobutyl-9,10-dimethoxy-1,3,4,6,7,11b-hexahydro-pyrido[2,1-a]isoquinolin-2-one]
